{"source": "patent US20050239873A1", "about": "“2 Methoxy antimycin a derivatives and methods of use” (priority 1999, published 2005)", "key": {"[1]": {"system": "TABX1A cells (under-expressing Bcl-xL)", "test": "Cell viability by trypan blue dye exclusion", "settings": "estimated from the dose-response curve", "excerpt": "(§1) Briefly, a DNA fragment encoding the full-length mouse BCl-xL cDNA was isolated from the plasmid PBS.BCL-xL (Tzung et al., Am. J. Path. 150:1985-1995, 1997, incorporated herein by reference in its entirety) by digestion with the restriction endonuclease EcoRI. This EcoRI fragment was cloned into the EcoRI site of the mammalian expression vector pSFFV (Fuhlbrigge et al., Proc. Nat. Acad. Sci. USA 85:5649-5653, 1988) in both sense and antisense orientations, to form expression plasmids pSFFV.Bcl-xL(sense) or pSFFV.Bcl-xL(antisense), respectively. […]\n(§2) Selected transfectants were then tested for whole cell sensitivity to several apoptotic agents. […] Cell viability was determined by trypan blue dye exclusion. The percentage of viable cells was calculated by the number of viable cells (treated with a particular apoptogenic agent) divided by the number in the control group (untreated).\n(§3) TABX2S cells and TABX1A cells were also examined for the effects of various mitochondrial inhibitors. […] At various time points after drug treatment, cells were trypsinized, and cell viability was determined by trypan blue dye exclusion. The number of viable cells were counted and normalized to control group (i.e., % control=number of viable cells (treated group)/number of viable cells (control group)×100)."}, "TAMH.neo cells (control)": {"system": "TAMH.neo cells (control)", "test": "Cell viability by trypan blue dye exclusion", "settings": "estimated from the dose-response curve", "excerpt": "as §1, §2, §3"}, "[2]": {"system": "TABX2S cells (over-expressing Bcl-xL)", "settings": "mouse", "excerpt": "as §1, §2, §3"}, "mice": {"system": "mice", "settings": "single intravenous dose; cited from earlier work"}}, "data": [{"substance": "antimycin A", "values": [{"measurement": "LD50", "setting": "[1]", "value": 8.3, "unit": "µM"}, {"measurement": "LD50", "setting": "TAMH.neo cells (control)", "value": 8.3, "unit": "µM"}, {"measurement": "difference in LD50 between TABX2S and TABX1A or TAMH.neo cells", "setting": "[2]", "value": "seven-fold"}, {"measurement": "LD50", "setting": "mice", "value": 0.893, "unit": "mg/kg"}]}]}
